Test results published in ChEMBL document CHEMBL1944561, “Discovery and SAR exploration of a novel series of imidazo[4,5-b]pyrazin-2-ones as potent and selective mTOR kinase inhibitors” (Bioorg Med Chem Lett, 2011).

Assay: Selectivity ratio of IC50 for GSK3alpha to IC50 for mTOR

CC(C)(O)c1ccc(-c2cnc3[nH]c(=O)n(CC4CCCCC4)c3n2)cc1
Ratio IC50: > 20
